Read-outs that look alike come from different tables or passages of the source. Values belong to the molecule of their own block, whether it stands above or below them.
Key:
A1 receptors = A1 receptors (Rattus norvegicus, UniProt P25099); test: biochemical; type: binding
A2a receptors = molecular target: T1, A2a receptors (Rattus norvegicus, UniProt P30543); test: radioligand binding, displacement of specific [3H]CGS 21680 binding in rat striatal membranes; settings: [3H]CGS 21680, rat striatal membranes
T1 construct: Displacement of specific [^3 H]; from tissue; host or cells: rat striatal membranes

Amino acid sequences for entries named in this document (tags omitted).
UniProt P25099, whole entry: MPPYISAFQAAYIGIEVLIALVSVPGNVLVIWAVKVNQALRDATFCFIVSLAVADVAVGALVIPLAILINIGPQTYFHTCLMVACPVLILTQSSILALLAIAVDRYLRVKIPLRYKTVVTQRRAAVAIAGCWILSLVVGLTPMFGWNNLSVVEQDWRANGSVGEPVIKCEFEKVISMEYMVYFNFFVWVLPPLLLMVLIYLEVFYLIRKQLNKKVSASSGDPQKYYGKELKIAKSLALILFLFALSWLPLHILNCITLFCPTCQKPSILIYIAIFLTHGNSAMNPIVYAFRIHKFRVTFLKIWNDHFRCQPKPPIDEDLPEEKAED
UniProt P30543, whole entry: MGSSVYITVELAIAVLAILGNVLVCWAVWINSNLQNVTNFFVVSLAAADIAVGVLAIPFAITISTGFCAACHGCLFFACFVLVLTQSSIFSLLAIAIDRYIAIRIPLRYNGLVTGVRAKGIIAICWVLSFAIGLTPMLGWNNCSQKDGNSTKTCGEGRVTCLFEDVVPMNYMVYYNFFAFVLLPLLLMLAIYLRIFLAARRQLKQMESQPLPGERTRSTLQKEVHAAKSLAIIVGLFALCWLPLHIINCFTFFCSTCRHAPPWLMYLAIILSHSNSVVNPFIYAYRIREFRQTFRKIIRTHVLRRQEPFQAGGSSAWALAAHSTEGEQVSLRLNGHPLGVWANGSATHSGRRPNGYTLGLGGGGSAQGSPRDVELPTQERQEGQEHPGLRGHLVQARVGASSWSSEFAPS
UniProt P0DMS8, whole entry: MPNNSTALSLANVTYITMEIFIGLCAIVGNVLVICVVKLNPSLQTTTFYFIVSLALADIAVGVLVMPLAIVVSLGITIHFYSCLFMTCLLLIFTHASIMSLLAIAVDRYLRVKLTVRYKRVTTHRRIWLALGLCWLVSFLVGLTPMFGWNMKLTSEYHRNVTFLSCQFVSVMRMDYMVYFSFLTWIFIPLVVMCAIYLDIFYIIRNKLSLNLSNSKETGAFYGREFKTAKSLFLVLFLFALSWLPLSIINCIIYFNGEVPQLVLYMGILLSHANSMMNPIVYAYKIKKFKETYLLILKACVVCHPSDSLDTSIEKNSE

human A3 receptors = molecular target: T2, human A3 receptors (Homo sapiens, UniProt P0DMS8); test: radioligand binding, displacement of specific [125I]AB-MECA binding at human A3 receptors expressed in HEK-293 cells; settings: Table 3, HEK-293 membranes, read-out: Ki hA3
T2 construct: expressed in transfected cells; host or cells: HEK-293 cells (membranes)

Structure (SMILES): COc1ccc(-c2oc3cc(OC)cc(OC)c3c(=O)c2OC)c(OC)c1 [Compound 6, 2',3,4',5,7-Pentamethyloxyflavone]
Ki (A1 receptors; Table 3, [3H]PIA, rat brain membranes, read-out: Ki rA1): 27.6 ± 7.5 µM | Ki (A2a receptors; Table 3, read-out: Ki rA2a): 46.7 ± 2.7 µM | Ki (human A3 receptors): 2.65 µM

Structure (SMILES): CCCOc1c2ccoc2cc2oc(/C=C/c3ccccc3)cc(=O)c12 [Compound 21, 4-propyloxy-7-trans-styryl-visnagin]
Ki (A1 receptors; Table 5, [3H]PIA, rat brain membranes, read-out: Ki rA1): 40 ± 3.5 µM

Structure (SMILES): O=c1cc(-c2ccccc2)oc2cccc(O)c12 [Compound 25, reference compound]
Ki (A1 receptors; Table 6, [3H]PIA, rat brain membranes, read-out: K2 (rA1)): 2.17 ± 0.06 µM

Structure (SMILES): O=C(CCc1ccccc1)Nc1nc2ccc(Cl)cc2c2nc(-c3ccco3)nn12 [Compound 160]
Ki (A1 receptors; read-out: Ki rA1): 0.0452 ± 0.0075 µM

Results, then the molecule that gave them:

Ki (A2a receptors; Table 9, read-out: Ki rA2A): 35.1 ± 10.1 µM
Structure (SMILES): COC(=O)C1=C(C)NC(C)=C([N+](=O)[O-])C1c1ccccc1C(F)(F)F (stereo not drawn) [Compound 69, reference compound]

Ki (A2a receptors; Table 9, read-out: Ki rA2A): 86.3 ± 28.4 µM
Structure (SMILES): COC(=O)C1=C(C)NC(C)=C([N+](=O)[O-])C1c1ccccc1C(F)(F)F (stereo not drawn) [Compound 70, reference compound]

Ki (A1 receptors; Ki rA1): 0.03 µM
Structure (SMILES): Nc1ccc(CC(=O)Nc2nc3ccc(Cl)cc3c3nc(-c4ccco4)nn23)cc1 [Compound 163]

Reference: patent publication US6066642A, “Dihydropyridine-, pyridine-, benzopyran-4-one- and triazoloquinazoline derivative, their preparation and their use as adenosine receptor antagonists” (priority 1998, dated 2000)
